Biological target: PDE1B (Homo sapiens, UniProt Q01064)
Assay: In vitro HTRF PDE1 inhibition assay (PDE1B)
Details: read-out: IC50 (μM), in vitro PDE1B HTRF Assay, 100 nM cyclic GMP, calmodulin, 45 minutes at 37° C.

Sequences of proteins named here, by UniProt entry; tags and fusion partners are left off.
UniProt Q01064, whole entry: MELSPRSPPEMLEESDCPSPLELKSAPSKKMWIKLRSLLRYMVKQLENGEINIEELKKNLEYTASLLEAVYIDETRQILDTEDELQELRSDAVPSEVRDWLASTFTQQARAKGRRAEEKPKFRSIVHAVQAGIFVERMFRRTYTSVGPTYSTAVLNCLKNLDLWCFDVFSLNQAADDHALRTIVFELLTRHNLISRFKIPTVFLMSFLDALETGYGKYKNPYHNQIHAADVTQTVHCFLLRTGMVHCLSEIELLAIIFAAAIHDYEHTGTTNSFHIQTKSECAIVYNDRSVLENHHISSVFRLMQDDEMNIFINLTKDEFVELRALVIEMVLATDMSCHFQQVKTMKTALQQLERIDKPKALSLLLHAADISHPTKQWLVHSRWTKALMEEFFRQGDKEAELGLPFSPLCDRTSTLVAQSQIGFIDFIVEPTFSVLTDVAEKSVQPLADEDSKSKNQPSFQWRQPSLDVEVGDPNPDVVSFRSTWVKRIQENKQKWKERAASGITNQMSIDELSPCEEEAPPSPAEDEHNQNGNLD

| IC50 [µM] | Structure (SMILES) |
| --- | --- |
| < 1 | CC(C)(C)c1ccc(C2Cn3c(nn4c(C5CCOCC5)ncc4c3=O)N2)cc1 (single isomer, unassigned) |
| < 1 | CC(C)c1ccc(C2Cn3c(nn4c(C5CCOCC5)ncc4c3=O)N2)cc1 (single isomer, unassigned) |
| < 1 | CCc1ccc(C2Cn3c(nn4c(C5CCOCC5)ncc4c3=O)N2)cc1 (single isomer, unassigned) |
| < 1 | Cc1ccc(C2Cn3c(nn4c(C5CCOCC5)ncc4c3=O)N2)c(F)c1 (single isomer, unassigned) |
| 1 to 10 | O=c1c2cnc(C3CCCC3)n2nc2n1CC(c1cncc(Cl)c1)N2 (single isomer, unassigned) |
| < 1 | O=c1c2cnc(C3CCOCC3)n2nc2n1CC(c1ccc(C(F)(F)F)cc1)N2 (single isomer, unassigned) |
| 10 to 100 | O=c1c2cnc(C3CCOCC3)n2nc2n1CC(c1ccc(Cl)cc1C(F)(F)F)N2 (single isomer, unassigned) |
| < 1 | O=c1c2cnc(C3CCOCC3)n2nc2n1CC(c1ccc(Cl)cc1F)N2 (single isomer, unassigned) |
| < 1 | O=c1c2cnc(C3CCOCC3)n2nc2n1CC(c1cccc(Cl)c1)N2 (single isomer, unassigned) |

— patent US20160083400A1, “TRICYCLIC GUANIDINE DERIVATIVE” (Sunovion Pharmaceuticals Inc., priority 2014, published 2016)
